Article PMC1084334, “Structure of the Mg-Chelatase Cofactor GUN4 Reveals a Novel Hand-Shaped Fold for Porphyrin Binding” (PLoS Biology, 2005)

Sequences of proteins named here, by UniProt entry; tags and fusion partners are left off. A change or cut given only in a name is not applied to a line headed by its entry.
UniProt P72583: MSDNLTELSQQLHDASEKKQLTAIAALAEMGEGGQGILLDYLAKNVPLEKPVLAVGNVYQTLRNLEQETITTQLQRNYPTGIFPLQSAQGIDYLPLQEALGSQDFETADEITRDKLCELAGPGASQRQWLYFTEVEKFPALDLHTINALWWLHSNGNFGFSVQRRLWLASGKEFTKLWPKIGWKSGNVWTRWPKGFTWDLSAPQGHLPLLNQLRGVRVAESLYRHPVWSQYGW

Molecular target: T1, SynGUN4 (Synechocystis sp. PCC 6803, UniProt P72583)
T1 construct: gene sll0558; full length, residues 1-233; E. coli BL21(DE3)
Experiment: tryptophan fluorescence quenching
Format: binding

Kd: 4.73 ± 1.16 µM
Compound: C=CC1=C(C)C2=Cc3c(C=C)c(C)c4[n]3[Fe]([Cl])[n]3c(c(C)c(CCC(=O)O)c3=CC3=NC(=C4)C(C)=C3CCC(=O)O)=CC1=N2 [hemin]
